Biological target: ubiquitin specific peptidase 21 (USP21) (human) (UniProt Q9UK80)

The chains behind the UniProt entries cited, without tags or fusion partners. Where a name states a change or a piece, a line headed by the entry shows the natural chain unless it says otherwise.
UniProt Q9UK80: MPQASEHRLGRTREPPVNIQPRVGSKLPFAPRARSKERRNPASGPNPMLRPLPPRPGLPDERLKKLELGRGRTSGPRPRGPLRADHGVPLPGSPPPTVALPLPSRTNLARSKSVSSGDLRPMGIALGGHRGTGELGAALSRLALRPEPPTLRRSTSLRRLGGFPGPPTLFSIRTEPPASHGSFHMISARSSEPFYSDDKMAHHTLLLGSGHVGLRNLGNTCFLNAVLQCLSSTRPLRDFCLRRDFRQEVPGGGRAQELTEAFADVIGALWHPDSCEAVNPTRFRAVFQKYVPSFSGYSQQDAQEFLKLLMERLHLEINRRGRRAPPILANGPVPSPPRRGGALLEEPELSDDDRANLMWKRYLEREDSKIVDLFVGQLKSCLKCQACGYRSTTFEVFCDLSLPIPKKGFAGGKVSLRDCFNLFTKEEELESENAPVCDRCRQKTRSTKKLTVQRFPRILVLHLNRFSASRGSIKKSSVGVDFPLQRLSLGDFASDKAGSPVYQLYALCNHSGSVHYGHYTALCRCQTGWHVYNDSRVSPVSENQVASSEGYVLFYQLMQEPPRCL

IC50 of inhibition of USP21 activity (Ub-AMC hydrolysis): 18 µM
Substance: wild-type human ubiquitin (from UniProt P0CG47 1-76) (natural protein)
